Laboratory results from patent publication US7547521B2, “Heteromultimeric ion channel receptor and uses thereof” (McGill University, priority 2000, dated 2009).

Amino acid sequences for entries named in this document (tags omitted). A change or cut given only in a name is not applied to a line headed by its entry.
UniProt Q9UHC3: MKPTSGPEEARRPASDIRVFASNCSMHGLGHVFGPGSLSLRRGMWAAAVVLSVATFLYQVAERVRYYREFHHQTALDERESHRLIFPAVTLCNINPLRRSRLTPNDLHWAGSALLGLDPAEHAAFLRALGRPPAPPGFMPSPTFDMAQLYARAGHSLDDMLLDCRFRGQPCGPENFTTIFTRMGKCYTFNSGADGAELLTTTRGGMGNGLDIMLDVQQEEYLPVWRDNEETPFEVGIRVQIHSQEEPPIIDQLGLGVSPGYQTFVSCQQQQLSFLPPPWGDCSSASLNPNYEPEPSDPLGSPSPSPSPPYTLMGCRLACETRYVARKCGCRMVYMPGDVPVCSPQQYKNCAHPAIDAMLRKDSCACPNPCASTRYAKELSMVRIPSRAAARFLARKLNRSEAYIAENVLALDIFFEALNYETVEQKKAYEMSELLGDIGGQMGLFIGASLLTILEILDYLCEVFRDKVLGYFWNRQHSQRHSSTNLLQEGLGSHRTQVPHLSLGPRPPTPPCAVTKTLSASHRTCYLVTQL

Target: T1, human ASIC2S.2 (ASIC2A+3) receptors (Homo sapiens, UniProt Q16515+Q9UHC3, A14P/I85V/M358I/P13Q)
T1 construct: allowing RT-PCR amplified full length nucleic acids to be directionally subcloned into pcDNA3; expressed in transfected cells; host or cells: Xenopus laevis oocytes (nuclear injection of pcDNA3 cDNAs)
T1 sequence (Q16515 1-512): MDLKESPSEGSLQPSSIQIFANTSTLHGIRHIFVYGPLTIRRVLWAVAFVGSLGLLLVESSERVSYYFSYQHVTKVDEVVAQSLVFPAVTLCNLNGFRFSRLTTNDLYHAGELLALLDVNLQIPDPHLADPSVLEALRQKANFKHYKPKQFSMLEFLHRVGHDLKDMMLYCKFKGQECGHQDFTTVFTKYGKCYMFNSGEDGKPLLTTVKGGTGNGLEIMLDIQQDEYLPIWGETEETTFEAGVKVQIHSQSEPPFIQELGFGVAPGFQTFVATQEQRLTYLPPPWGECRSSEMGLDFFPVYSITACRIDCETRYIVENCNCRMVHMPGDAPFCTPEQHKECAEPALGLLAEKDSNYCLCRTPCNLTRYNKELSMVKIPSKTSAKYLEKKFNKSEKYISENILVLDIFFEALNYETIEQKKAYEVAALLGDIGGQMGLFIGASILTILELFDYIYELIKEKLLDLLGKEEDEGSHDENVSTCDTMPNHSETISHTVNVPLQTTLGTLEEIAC
T1 sequence (Q9UHC3 1-531 P13Q/A14P/I85V/M358I): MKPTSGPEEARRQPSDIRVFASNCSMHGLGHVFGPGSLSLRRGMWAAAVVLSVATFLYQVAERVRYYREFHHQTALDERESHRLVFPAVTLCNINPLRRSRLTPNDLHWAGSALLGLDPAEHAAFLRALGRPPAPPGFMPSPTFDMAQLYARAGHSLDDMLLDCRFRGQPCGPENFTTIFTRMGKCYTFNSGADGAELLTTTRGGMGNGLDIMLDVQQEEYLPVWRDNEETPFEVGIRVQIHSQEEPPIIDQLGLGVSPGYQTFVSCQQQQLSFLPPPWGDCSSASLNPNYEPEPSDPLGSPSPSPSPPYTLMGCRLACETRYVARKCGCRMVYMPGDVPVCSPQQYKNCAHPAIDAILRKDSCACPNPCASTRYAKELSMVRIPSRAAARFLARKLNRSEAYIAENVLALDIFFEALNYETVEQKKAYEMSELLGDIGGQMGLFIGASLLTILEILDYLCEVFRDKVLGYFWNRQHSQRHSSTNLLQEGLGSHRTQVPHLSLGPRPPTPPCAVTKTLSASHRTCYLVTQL
Experiment: Two-electrode voltage clamp of proton-gated currents in Xenopus oocytes expressing human ASIC2S.2
Assay type: cell-based
Conditions: pH 4, % of response measured in presence of 10^-8 M peptide, read-out: EC50 for potentiation of currents induced by pH 4
Description: According to method 1 described above, nuclei of Xenopus oocytes are injected with ASIC2A and ASIC3 cDNAs separately subcloned into pcDNA3 expression vector (1-5 ng). Control oocytes are injected with H2O. Oocytes are maintained at 18° C. in modified Barth's solution. Proton-activated currents are measured by two-electrode voltage clamp 1-3 days after injection. During voltage clamp (−60 mV/−100 mV)), oocytes are bathed in 116 mM NaCl, 2 mM KCl, 1.8 mM CaCl2, 10 mM acetic acid and 5 mM Hepes (pH 7.4 with NaOH). To determine proton-gating, bath solution is quickly switched to a solution of pH<7.4 for 10 sec, then returned to bath solution for washout. The stimulating solution is prepared by lowering the pH of the original bath solution with hydrochloric acid. The osmolality of the solutions is verified with an osmometer and corrected with mannitol or choline chloride. To document ionic selectivity, NaCl is replaced with LiCl or KCl. Current-voltage relationships are determined by stepping from a holding potential of −60 mV to potentials between −100 and +60 mV for 10 seconds before and during stimulation with low pH solution. FIGS. 1A (human) and 1B (rat) compare proton-activated currents carried by homomultimeric ASIC2A and ASIC3 receptors to the heteromultimeric ASIC-2S.2 receptors (ASIC2a+3). […] Species differences are also noteworthy. […]

Question: For FMRFamide, which EC50 is on record?
Answer: 13 µM
